Earlier results, collected in patent US4939177A, “Use of avarol for the control of AIDS and ARC” (Merz + Co. GmbH & Co., priority 1986, dated 1990).

Test system: L5178y cells
Details: NMRI mice bearing L5178y cells; cited from earlier work

## CC1=CCC[C@H]2[C@](C)(Cc3cc(O)ccc3O)[C@@H](C)CC[C@]12C [Avarol, 2-[(1R)-1,2,3,4,4a,7,8,8aα-octahydro-1β,2β,4aβ,5-tetramethyl-1-naphthylmethyl]-1,4-benzenediol]
  chemotherapeutical dose: 1 to 50 mg/kg
